Source: PubChem BioAssay AID602248 (The Scripps Research Institute Molecular Screening Center, 2012)
The entries are a selection whose mix differs from that of the whole data set. Calls of active or inactive are those of the source. Cut-off read from the data, not from the text of the source: active = activation above about 15%; inactive = the rest.

assay: counter-screen for M1 agonists: effect in parental CHO-K1 cells (AID 602248); conditions: Fluo-8 calcium fluorescence, at 3 µM, stronger effect = higher value, scaled to maximal ATP response, vehicle zero;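 note: untransfected CHO-K1 host cells lacking M1 receptor as counterscreen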

Compound	activation
CP(=O)(Oc1ccccc1)N1CCOC1=O (stereo not given)	inactive: 0.08%
O=C(OCCCN1CCCC1)C(O)(c1ccccc1)C1CCCCC1 (stereo not given)	inactive: 0.8%
COc1ccccc1OP(C)(=O)Nc1c(C)n(C)n(-c2ccccc2)c1=O (stereo not given)	inactive: 0.17%
COc1ccc(OP(C)(=O)Nc2ccc(Br)cc2)cc1 (stereo not given)	inactive: 2.63%
CCN(CC)CC(O)COC(=O)C(O)(c1ccccc1)C1CCCCC1 (stereo not given)	inactive: 0.32%
CCc1ccc(OP(C)(=O)O)cc1	inactive: -0.26%
COc1ccccc1OP(C)(=O)Nc1ccc(C)cc1C (stereo not given)	inactive: -0.2%
CP(=O)(Nc1ccccn1)Oc1ccccc1 (stereo not given)	inactive: -0.18%
O=[N+]([O-])c1cc([N+](=O)[O-])c(Nc2ccccn2)c([N+](=O)[O-])c1	inactive: 3.69%
Cc1c(NP(C)(=O)Oc2ccc(C(C)C)cc2)c(=O)n(-c2ccccc2)n1C (stereo not given)	inactive: 0.21%
CN(C)CCOC(=O)C(O)(c1ccccc1)C1CCCC1 (stereo not given)	inactive: 4.89%
COc1ccc(OP(C)(=O)Nc2ccccn2)cc1 (stereo not given)	inactive: 0.76%
COc1ccccc1OP(C)(=O)Nc1ccc(Br)cc1 (stereo not given)	inactive: 4.16%
CP(=O)(OCCOc1ccccc1)OCCOc1ccccc1	inactive: 0.83%
CCCCCCCCCCCCCCCC1C[N+](C)(C)CCOP(C)(=O)O1 (stereo not given)	inactive: 3.36%
CP(=O)(Nc1ccc(Cl)cc1Cl)Oc1ccccc1 (stereo not given)	inactive: 0.51%
COc1ccc(OP(C)(=O)Nc2ccccc2Br)cc1 (stereo not given)	inactive: 0.56%
COc1ccccc1OP(C)(=O)Nc1ccc(C)c(C)c1 (stereo not given)	inactive: 0.57%
Cc1cc(C)cc(OP(C)(=O)Nc2cccc(C(F)(F)F)c2)c1 (stereo not given)	inactive: -0.3%
O=C1C(O)=C([N+](=O)[O-])C(=O)C(O)=C1[N+](=O)[O-]	inactive: 0.69%
